Among the data in ChEMBL document CHEMBL1921667, “Discovery and optimization of indoles and 7-azaindoles as Rho kinase (ROCK) inhibitors (part-I)” (Bioorg Med Chem Lett, 2011) are Ratio IC50 values, retold here.

The species named for the experiment is Homo sapiens. In words: Selectivity ratio of IC50 for PKA to IC50 for human ROCK2.

Take `COc1cccc(CNC(=O)c2c[nH]c3cc(-c4cn[nH]c4)ccc23)c1`: the Ratio IC50 is over 4000.
